The test system of the experiment is Hh signaling. Description: luciferase-based reporter assay of Hh signaling in C3H10T1/2 cells. Format: cell-based. The note with it: cells activated by Hh-Ag 1.2 (200 nM). (In general: A reporter such as luciferase makes a cellular process visible.)

Each structure is given as a SMILES string.

As for `CC1=C2C[C@H]3[C@@H](CC=C4C[C@@H](O)CC[C@@]43C)[C@@H]2CC[C@]12O[C@@H]1C[C@H](C)CN[C@H]1[C@H]2C` [cyclopamine], the “effect on pathway activation by the agonist” value is recorded as “inhibitory”.

Source of the values: paper PMC137065 (Journal of Biology, 2002).
